Results on 24 compounds are retold here after PubChem BioAssay AID2300 (The Scripps Research Institute Molecular Screening Center, 2010).

Amino acid sequences for entries named in this document (tags omitted).
UniProt Q9Y5X4, whole entry: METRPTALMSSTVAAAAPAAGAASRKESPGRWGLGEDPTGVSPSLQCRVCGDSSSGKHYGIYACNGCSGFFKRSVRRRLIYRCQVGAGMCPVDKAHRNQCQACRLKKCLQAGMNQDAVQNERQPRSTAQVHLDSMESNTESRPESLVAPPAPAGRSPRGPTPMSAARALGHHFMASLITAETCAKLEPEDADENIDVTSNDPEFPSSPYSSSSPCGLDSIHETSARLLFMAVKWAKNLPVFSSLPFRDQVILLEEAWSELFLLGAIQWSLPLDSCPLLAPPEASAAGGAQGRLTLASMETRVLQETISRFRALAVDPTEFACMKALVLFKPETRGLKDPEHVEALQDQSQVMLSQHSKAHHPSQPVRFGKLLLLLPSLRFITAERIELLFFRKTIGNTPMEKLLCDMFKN

The entries are a selection whose mix differs from that of the whole data set. Some of these compounds have results that are not shown, active ones among them. Activity calls are given as the source filed them.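 Rule for the calls: active = percent inhibition above the cutoff of mean plus 3 SD of all tested compounds, set per screening campaign (cut at about 20% in these data); inactive = the rest.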

The target in this assay is Photoreceptor-specific nuclear receptor (Homo sapiens) (UniProt Q9Y5X4). The assay is described as follows: disruption of NR2E3 corepressor interaction – biochemical, TR-FRET, GST-NR2E3, biotin-RetCOR, NR2E3 agonist project, primary screen (AID 2300).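 Note: 0% = DMSO wells and 100% = biotin wells as full block of FRET.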 The following applies: 1536-well, at 4.78 µM, hits give high values. Put shortly:
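Assay system: NR2E3–RetCOR corepressor complex. Quantity: 1.35 nM GST-NR2E3. Buffer or medium: pH 7.5 Tris-based buffer. Reagent: biotinylated RetCOR corepressor at 7 nM final. Schedule: 5 h at 4 °C. Detection: TR-FRET, emission read at 617 and 671 nm. Replicates: one well per compound, singlicate testing.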
For orientation: In TR-FRET formats the signal depends on donor and acceptor labels being close together.
With `Cc1ccc(C(=O)NCC2(N3CCCCC3)CCCCC2)cc1`, the inhibition of corepressor binding was inactive: 6.45%.
Regarding `CC(C)N1C(=O)CC2(CCN(CCOC(=O)C(O)(c3ccccc3)c3ccccc3)CC2)C1=O`, the inhibition of corepressor binding is inactive: -1.94%.
Next, `CCN(CC)CC(C)C(C)OC(=O)C(O)(c1ccccc1)c1ccccc1` (centres undefined): inactive: 1.31%.
Under `COc1cc(SC)ccc1C(=O)NCC1(N(C)C)CCCCC1` stands inactive: -2.36%; under `CN1[C@@H]2CC[C@H]1CC(OC(=O)C(O)(c1ccccc1)c1ccccc1)C2` (some centres undefined), inactive: 3.17%.
Under `O=C(NCC1(N2CCCCC2)CCCCC1)c1cc([N+](=O)[O-])ccc1Cl` stands inactive: -0.38%; under `Cc1cc(C(=O)NCC2(N3CCCCC3)CCCCC2)ccc1[N+](=O)[O-]`, inactive: -1.35%; under `CCN1CCCC(OC(=O)C2(O)c3ccccc3C=Cc3ccccc32)C1` (centres undefined), inactive: 0.11%.
As to `O=C(NCC1(N2CCCCC2)CCCCC1)c1cccc(Br)c1`, the inhibition of corepressor binding was inactive: 0.42%.
Next, `COc1ccc(C(=O)NCC2(N(C)C)CCCCC2)cc1`: inactive: -0.73%; `C=CCN1CCN(CCOC(=O)C(O)(c2ccccc2)c2ccccc2)CC1`: inactive: -1.98%; `O=C(NCC1(N2CCCCC2)CCCCC1)c1cc(F)c(F)cc1Cl`: inactive: 6.09%.
Next, `Cc1ccccc1C(=O)NCC1(N2CCCCC2)CCCCC1`: inactive: -0.61%; `CN(C)C1CCCC1OC(=O)C(O)(c1ccccc1)c1ccccc1` (centres undefined): inactive: 0.93%; `CN(C)c1ccc(C(=O)NCC2(N(C)C)CCCCC2)cc1`: inactive: -1.18%.
Under `O=C(NCC1(N2CCCCC2)CCCCC1)c1cccc(Cl)c1` stands inactive: 1.86%.
On to `COc1cccc(C(=O)NCC2(N3CCCCC3)CCCCC2)c1`, for which the inhibition of corepressor binding is inactive: -2.74%.
Under `COc1ccc(Cl)cc1C(=O)NCC1(N(C)C)CCCCC1` stands inactive: -2.89%; under `COc1cc(C(=O)NCC2(N(C)C)CCCCC2)c([N+](=O)[O-])cc1OC`, inactive: 2.53%.
With `CN(C)C1(CNC(=O)c2ccc(Br)cc2)CCCCC1`, the inhibition of corepressor binding is inactive: -4.06%.
Under `CN(C)c1cccc(C(=O)NCC2(N(C)C)CCCCC2)c1` stands inactive: 3.41%.
Under `CC(C)Oc1ccc(C(=O)NCC2(N(C)C)CCCCC2)cc1` stands inactive: 2.07%; under `COc1ccc(Br)c(C(=O)NCC2(N3CCCCC3)CCCCC2)c1`, inactive: -1.34%; under `O=C(OC1CN2CCC1CC2)C(CO)(c1ccccc1)c1ccccc1` (centres undefined), inactive: -0.56%.
